In this experiment the target is Staphylococcus aureus IsdB hemophore, wild type (Staphylococcus aureus, UniProt Q2FZF0 41-613). The experiment is described as follows: ELISA. The settings on record: both partners purified.

B1: Human hemoglobin A (oxyhemoglobin) (complex)
chain 1: not shown
chain 2: not shown
Regarding B1, the Kd amounted to 39 ± 4 nM.

Source of the values: article PMC11003968 (Scientific Reports, 2024).
